Reference: US7687508B2, “Cyclic derivatives as modulators of chemokine receptor activity” (Bristol-Myers Squibb Company, priority 2006, dated 2010)

Legend:
human CCR2 [1] = biological target: T1, human CCR2 (Homo sapiens, UniProt P41597); assay: THP-1 binding (CCR2, 125I-human MCP-1 tracer); parameters: THP-1 human monocytic leukemic cell line, which expresses endogenous CCR2; endogenous in cells; host or cells: THP-1 human monocytic leukemia cells; details: metabolite examples; THP-1 cells, 125I-MCP-1
T1 sequence (P41597 1-360 isoform P41597-2): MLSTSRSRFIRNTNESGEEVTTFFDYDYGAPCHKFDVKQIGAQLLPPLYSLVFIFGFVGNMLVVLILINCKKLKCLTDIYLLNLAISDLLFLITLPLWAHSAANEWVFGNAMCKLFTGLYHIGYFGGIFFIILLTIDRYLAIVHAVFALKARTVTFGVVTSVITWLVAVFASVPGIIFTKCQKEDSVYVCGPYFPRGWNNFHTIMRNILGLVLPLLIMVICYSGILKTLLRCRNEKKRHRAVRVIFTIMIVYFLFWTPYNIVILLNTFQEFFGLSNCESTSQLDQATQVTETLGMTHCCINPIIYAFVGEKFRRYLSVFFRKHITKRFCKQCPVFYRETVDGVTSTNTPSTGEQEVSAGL
Experimental: The human CCR2 binding assay was also established with the THP-1 human monocytic leukemic cell line, which expresses endogenous CCR2, using 125I-human MCP-1 as the tracer ligand. Radioligand competition binding assays were used for assessment of binding affinity of test compounds to the CCR2 receptor. For radioligand competition studies, 100 μl containing 2.5×10^5 THP-1 cells/well (in assay buffer containing 50 mM HEPES, pH7.4, 5 mM MgCl2, 1 mM CaCl2 and 0.5% BSA) were added to 96-well assay plates containing test compound in 3-fold serial dilution, with final concentrations ranging from […]. Subsequently, 50 μl ^125I-MCP-1 radioligand at a final concentration of 0.2 nM in assay buffer were added to the reaction. After a 90 minute incubation period at room temperature, the binding reaction was terminated by harvesting on GF/B filter plates (PerkinElmer Cat. No. 6005177) followed by washing with ice-cold wash buffer (50 mM HEPES, pH 7.4, 0.1% BSA, 0.5 M NaCl) to remove unbound ligand. After washing, the plate was dried for 45 minutes at 60° C. followed by addition of 40 μl MicroScint 20 scintillation fluid, sealed and analyzed by the Packard TopCount reader. […] Specific binding of 1-MCP-1 was calculated as the difference between total and non-specific binding. […] After correcting for non-specific binding, IC50 values were determined.

human CCR2 [2] = biological target: T1, human CCR2; assay: Human peripheral blood mononuclear cell binding (CCR2 binding), 125I-human MCP-1 tracer; parameters: hPBMCs were isolated from human leukopak (Biological Specialty Inc.); endogenous in cells; host or cells: human peripheral blood mononuclear cells from leukopak (Biological Specialty Inc.); details: metabolite examples; hPBMCs, 125I-MCP-1; read-out: PBMC Binding IC50
Experimental: See also: Yoshimura et al., J. Immunol. 1990, 145, 292. The human CCR2 binding assay was established with human peripheral blood mononuclear cells (hPBMCs) using ^125I-human MCP-1 as the tracer ligand. hPBMCs were isolated from human leukopak (Biological Specialty Inc.) using a standard protocol with Ficoll-Hypaque (Mediatech Cellgro). Isolated hPBMCs were washed and diluted to 1×10^7/ml in binding buffer (RPMI-1640, 0.1% BSA, 20 mM Hepes, pH 7.4). ^125I-MCP-1 (NEN/Perk Elmer) was diluted to 0.45 nM in binding buffer. The compound was diluted in binding buffer at 3-fold the final concentrations used in the binding assay. The binding assay was performed using a 96-well filter plate (Millipore). Total ^125I-MCP-1 binding was assessed as follows: to each reaction of a total volume of 150 μl were added 5×10^5 cells, 0.15 nM […], and compound such that the final concentration ranged from 0 to 100 nM. The plate was incubated at room temperature for 30 minutes followed by three washes with RPMI-1640, 0.1% BSA, 0.4 M NaCl, 20 mM Hepes, pH 7.4 using a vacuum manifold filtration (Millipore). […] The plate was sealed and counted on the Trilux for 1 minute. Non-specific binding was determined in the presence of 300 nM cold MCP-1 (PeproTech Inc.). Specific 1-MCP-1 was calculated as the difference between total and non-specific binding. […]

## CC(=O)N[C@@H]1C[C@H](NC(C)C)CC[C@@H]1N1CC[C@H](Nc2ncnc3ccc(C(F)(F)F)cc23)C1=O [Example 2, N-((1R,2S,5R)-5-(isopropylamino)-2-((3S)-2-oxo-3-((6-(trifluoromethyl)-4-quinazolinyl)amino)-1-pyrrolidinyl)cyclohexyl)acetamide]
Human CCR2 [1]
  IC50: 27 nM
Human CCR2 [2]
  IC50: 15 ± 7.3 nM
